Laboratory results published in patent publication US20210041447A1, “AZACARBOLINE COMPOUNDS FOR THE DETECTION OF TAU AGGREGATES” (AC IMMUNE SA, priority 2018, published 2021).

Protein sequences, listed by entry. Tags and fused reporters are not part of them. Residues count along the entry.
UniProt P05067, 672-711 limits assumed: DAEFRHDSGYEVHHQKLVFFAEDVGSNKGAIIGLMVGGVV
UniProt P21397, whole entry: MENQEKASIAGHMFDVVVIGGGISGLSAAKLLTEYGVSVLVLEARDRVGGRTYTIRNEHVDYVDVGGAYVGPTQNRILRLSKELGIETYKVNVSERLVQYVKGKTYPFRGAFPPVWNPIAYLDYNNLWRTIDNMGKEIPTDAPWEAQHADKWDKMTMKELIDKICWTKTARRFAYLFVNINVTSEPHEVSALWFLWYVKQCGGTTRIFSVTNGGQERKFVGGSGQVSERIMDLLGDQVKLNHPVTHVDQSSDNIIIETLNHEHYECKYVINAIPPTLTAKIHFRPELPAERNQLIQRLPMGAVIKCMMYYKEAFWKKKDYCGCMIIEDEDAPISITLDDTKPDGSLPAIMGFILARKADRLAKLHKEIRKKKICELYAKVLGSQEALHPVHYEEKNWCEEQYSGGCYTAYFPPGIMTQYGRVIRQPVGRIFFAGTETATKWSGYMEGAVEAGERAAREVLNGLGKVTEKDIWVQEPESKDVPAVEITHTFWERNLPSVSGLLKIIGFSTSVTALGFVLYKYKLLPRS
UniProt Q64133, whole entry: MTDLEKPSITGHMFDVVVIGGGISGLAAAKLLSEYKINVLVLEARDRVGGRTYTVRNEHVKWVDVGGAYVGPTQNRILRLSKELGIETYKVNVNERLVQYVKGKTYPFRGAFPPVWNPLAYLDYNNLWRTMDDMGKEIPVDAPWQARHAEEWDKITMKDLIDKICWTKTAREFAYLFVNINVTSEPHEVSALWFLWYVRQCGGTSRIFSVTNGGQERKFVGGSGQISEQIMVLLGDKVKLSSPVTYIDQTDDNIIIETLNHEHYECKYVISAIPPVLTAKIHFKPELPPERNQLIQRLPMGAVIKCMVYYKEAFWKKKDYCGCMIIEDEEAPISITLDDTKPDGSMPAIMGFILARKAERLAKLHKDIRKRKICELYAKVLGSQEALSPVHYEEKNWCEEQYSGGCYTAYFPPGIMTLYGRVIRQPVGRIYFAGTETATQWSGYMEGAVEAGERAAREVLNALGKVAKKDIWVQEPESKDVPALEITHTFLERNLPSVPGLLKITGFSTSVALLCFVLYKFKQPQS
UniProt P27338, whole entry: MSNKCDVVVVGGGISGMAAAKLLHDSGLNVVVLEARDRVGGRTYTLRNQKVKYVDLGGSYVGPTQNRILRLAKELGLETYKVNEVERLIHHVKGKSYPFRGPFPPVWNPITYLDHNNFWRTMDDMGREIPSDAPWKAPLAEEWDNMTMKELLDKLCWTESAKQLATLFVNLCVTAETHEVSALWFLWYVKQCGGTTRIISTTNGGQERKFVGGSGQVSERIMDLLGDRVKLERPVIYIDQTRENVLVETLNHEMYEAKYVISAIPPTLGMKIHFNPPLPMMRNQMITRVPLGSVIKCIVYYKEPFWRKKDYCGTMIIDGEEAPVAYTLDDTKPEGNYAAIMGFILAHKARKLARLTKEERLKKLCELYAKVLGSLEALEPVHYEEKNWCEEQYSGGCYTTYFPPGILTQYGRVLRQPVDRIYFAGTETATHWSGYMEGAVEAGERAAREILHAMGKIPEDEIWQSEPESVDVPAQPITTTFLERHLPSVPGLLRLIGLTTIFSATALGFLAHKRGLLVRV
UniProt P10636, 623-708 limits assumed: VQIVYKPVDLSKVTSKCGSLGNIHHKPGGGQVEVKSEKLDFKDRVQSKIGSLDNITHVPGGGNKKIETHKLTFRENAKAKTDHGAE

What was measured:
amyloid-beta = amyloid-beta (Homo sapiens, UniProt P05067); experiment: Binding affinity to amyloid-beta in AD brain homogenate, competition with 18F-labeled beta-amyloid binder; parameters: key: −: poor; ∘: moderate; +: good; ++: very good; +++: excellent
Description: (§1) 20 μg of human Alzheimer disease brain homogenate was incubated with a dilution series of each test compound (1000 to 0.06 nM) in the presence of 800 Bq of ^18F-labeled beta-amyloid binder. The samples were shaken at 110 rpm for 45 min at 37° C. Samples were then filtered through GF/B 96-well filter plates and washed twice with 300 μL assay buffer (PBS containing 0.1% BSA and 2% DMSO). Thereafter, filter plates were sealed and a Fuji Film Imaging Plate (BAS-SR2025) was placed on top. The imaging plate was analyzed after overnight exposition using a Fuji Film BAS-5000. Non-specific signal was determined with samples containing ^18F-labeled beta-amyloid binder in the presence of assay buffer without brain substrate and competitor. Specific binding was calculated by subtracting the non-specific signal from the measured samples signal. The unblocked ^18F-labeled beta-amyloid binder signal was defined as total binding. IC50 values were calculated by Prism V6 (GraphPad) setting total binding to 100%.

MAO A [1] = target: MAO A (Homo sapiens, UniProt P21397); experiment: Binding affinity to MAO A in human HC brain homogenate, [18F]fluoroethyl harmine competition; conditions: human healthy control brain homogenate; note: key: −: poor; ∘: moderate; +: good; ++: very good; +++: excellent
Description: as §1, with “of” for “of human Alzheimer disease”, “homogenate (without AD pathology)” for “homogenate”, “18F-labeled MAO-A binder ([^18F]fluoroethyl harmine, FEH).” for “^18F-labeled beta-amyloid binder.”, “FEH” for “beta-amyloid binder”

MAO A [2] = target: MAO A (Mus musculus, UniProt Q64133); experiment: Binding affinity to MAO A in mouse brain homogenate, [18F]fluoroethyl harmine competition; note: key: −: poor; ∘: moderate; +: good; ++: very good; +++: excellent
Description: as §1, with “of” for “of human Alzheimer disease”, “homogenate (without AD pathology)” for “homogenate”, “18F-labeled MAO-A binder ([^18F]fluoroethyl harmine, FEH).” for “^18F-labeled beta-amyloid binder.”, “FEH” for “beta-amyloid binder”

MAO B = MAO B (Homo sapiens, UniProt P27338); experiment: Binding affinity to MAO B in HC brain homogenate, [18F]fluoro deprenyl competition; note: key: −: poor; ∘: moderate; +: good; ++: very good; +++: excellent
Description: as §1, with “human” for “human Alzheimer disease”, “homogenate (without AD pathology)” for “homogenate”, “MAO-B binder ([^18F]fluoro deprenyl).” for “beta-amyloid binder.”, “fluoro deprenyl” for “beta-amyloid binder”

Tau = Tau (Homo sapiens, UniProt P10636); experiment: Tau binding in AD brain homogenate, competition with 18F-labeled Tau binder; parameters: key: −: poor; ∘: moderate; +: good; ++: very good; +++: excellent; conditions: non-radioactive fluorine-19 derivatives
Description: as §1, with “of ^18F-labeled Tau binder. The” for “of ^18F-labeled beta-amyloid binder. The”, “through GF/B 96 well filter plates” for “through GF/B 96-well filter plates”, “containing ^18F-labeled Tau-reference binder in” for “containing ^18F-labeled beta-amyloid binder in”, “unblocked ^18F-labeled Tau-binder signal was” for “unblocked ^18F-labeled beta-amyloid binder signal was”

## Fc1ccc(-c2ccc3c(c2)[nH]c2ccncc23)cn1
amyloid-beta
  Low affinity to amyloid-beta: +++
MAO A [1]
  Low affinity to MAO A (HC homogenate): −
MAO A [2]
  Low affinity to MAO A (mouse homogenate): +
MAO B
  Low affinity to MAO B: +

## Fc1ccc(-c2ccc3c(n2)[nH]c2ccncc23)cn1
Tau
  High affinity to Tau: +++
amyloid-beta
  Low affinity to amyloid-beta: +++
MAO A [1]
  Low affinity to MAO A (HC homogenate): +
MAO A [2]
  Low affinity to MAO A (mouse homogenate): ++
MAO B
  Low affinity to MAO B: +++
